Test results: PubChem BioAssay AID624465 (National Center for Advancing Translational Sciences (NCATS), 2012)
Only a part is listed here, and it is no random draw. Activity calls are given as the source filed them. Cut-off read from the data, not from the text of the source: active = activation above about 40%; inconclusive = between about 15% and that limit; inactive = weaker than that.

The chains behind the UniProt entries cited, without tags or fusion partners.
UniProt P14416, whole entry: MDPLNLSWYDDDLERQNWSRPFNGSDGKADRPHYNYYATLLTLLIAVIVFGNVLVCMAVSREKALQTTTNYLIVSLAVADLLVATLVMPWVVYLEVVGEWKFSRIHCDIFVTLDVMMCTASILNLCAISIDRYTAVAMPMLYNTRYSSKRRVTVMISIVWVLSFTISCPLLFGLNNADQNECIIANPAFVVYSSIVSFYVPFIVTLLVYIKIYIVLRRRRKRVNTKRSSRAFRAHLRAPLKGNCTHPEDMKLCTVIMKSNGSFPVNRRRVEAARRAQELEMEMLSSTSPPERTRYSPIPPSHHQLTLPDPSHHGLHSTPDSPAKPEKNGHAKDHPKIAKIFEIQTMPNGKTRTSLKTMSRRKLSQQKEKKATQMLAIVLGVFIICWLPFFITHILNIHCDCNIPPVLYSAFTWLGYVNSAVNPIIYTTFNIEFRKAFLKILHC

Each compound was assayed against D(2) dopamine receptor (Homo sapiens) (UniProt P14416) (assay: Beta-Arrestin HTS for Positive Allosteric Modulators of the Human D2 Dopamine Receptor: Agonists). Details: DiscoveRx PathHunter D2 beta-arrestin, luminescence, 90 min; stronger effect = higher value; 100% = 57 uM dopamine signal.
Source text: There is great interest in identifying small molecule ligands for G-protein coupled receptors (GPCRs) as nearly 50% of all FDA-approved drugs target these important receptor proteins. […] Amongst the dopamine receptors (DARs), the D2 is arguably one of the most validated drug targets in neurology and psychiatry. For instance, all receptor-based antiparkinsonian drugs primarily work via stimulating the D2 DAR, whereas all FDA-approved antipsychotic agents are antagonists of this receptor. The D2 DAR is also therapeutically targeted in other disorders such as restless legs syndrome, tardive dyskinesia, Tourette's syndrome, and hyperprolactinemia.
To this end, a miniaturized qHTS screen was developed to be screened against the Molecular Libraries Small Molecule Repository (MLSMR). This assay seeks to identify agonists against the D2 DAR.
NIH Molecular Libraries Probe Production Network [MLPCN]
NIH Chemical Genomics Center [NCGC]
PI Name: David Sibley, National Institutes of Neurological Disorders and Stroke
DiscoveRx D2 cells were thawed from frozen stock and seeded at 2,100 cells/ 3 uL/well media (DiscoveRx Plating Reagent 2) with MultiDrop Combi dispenser (Thermo Scientific, Logan, UT) onto white tissue culture treated 1536-well Aurora plates (Brooks Automation, Chelmsford, MA) and allowed to attach overnight at 37 deg C, 5% CO2. Next, 23 nL/well of compound solutions in DMSO were added with a pintool transfer (Kalypsis, San Diego, CA). As the positive control, 1 uL/well dopamine (EC100, 57 uM final concentration) diluted in buffer (HBSS + 10 mM HEPES + SMB + 0.1% Tween-20) was dispensed to 1 column of each plate. The rest of the plate was dispensed with buffer only, 1 uL/well as well. The cells were stimulated by compounds or dopamine control for 90 minutes at 37 deg C, 5% CO2, after which 1.5 ul/well of DiscoveRx detection reagent was added with BioRAPTR FRD dispenser. The detection reagent was prepared by mixing of Galacton Star Substrate, Emerald II solution and PathHunter buffer (supplied by the assay kit) together at 1:5:19 proportion accordingly just prior to dispensing. The plates were incubated at ambient temperature for 1 hour and then the luminescent signal was read on ViewLux plate reader (PerkinElmer, Waltham, MA).

Compound | activation
COc1ccccc1OP(C)(=O)Nc1ccc(Br)cc1 (centres undefined) | inactive: -4.22%
CN(C(=O)Cc1ccc(Cl)c(Cl)c1)[C@H]1CCCC[C@H]1N1CCCC1 | inactive: -3.68%
Cc1ccc(OP(=O)(Nc2nccs2)Oc2ccc(C)cc2)cc1 | inactive: -5.33%
COc1ccc(OP(C)(=O)Nc2ccccn2)cc1 (centres undefined) | inactive: 0.63%
COc1ccccc1OP(=O)(Nc1ccc(C)cn1)Oc1ccccc1OC | inactive: -4.33%
CN(C)CCOC(=O)C(O)(c1ccccc1)C1CCCC1 (centres undefined) | inactive: -2.33%
Clc1ccc(Cl)c(NC2=NCC(CBr)S2)c1 (centres undefined) | inactive: -1.69%
CN1CCCC(OC(=O)C(c2ccccc2)c2ccccc2)C1 (centres undefined) | inactive: -6.83%
O=[N+]([O-])c1cc([N+](=O)[O-])c(Nc2ccccn2)c([N+](=O)[O-])c1 | inactive: 1.33%
CC(C)CC(=O)NC(Sc1ccc(Cl)cc1)C(Cl)(Cl)Cl (centres undefined) | inactive: 0.0663%
Nc1cc(N)c2nonc2c1[N+](=O)[O-] | inactive: 11.5%
Cc1c(NP(C)(=O)Oc2ccc(C(C)C)cc2)c(=O)n(-c2ccccc2)n1C (centres undefined) | inactive: 0.755%
O=C(NC(Sc1ccncn1)C(Cl)(Cl)Cl)c1ccccc1 (centres undefined) | inactive: -0.84%
Oc1ccccc1CNc1ccccn1 | inactive: 2.31%
COc1ccccc1OP(C)(=O)Nc1ccc(C)cc1C (centres undefined) | inactive: -1.2%
CP(=O)(Nc1ccccn1)Oc1ccccc1 (centres undefined) | inactive: -1.06%
O=[N+]([O-])C1C(O)C(O)C([N+](=O)[O-])C(O)C1O (centres undefined) | inactive: 4.11%
CCc1ccc(OP(C)(=O)O)cc1 | inactive: -4.05%
CCCC1OP(N)(=O)OCC1CC (centres undefined) | inactive: -2.33%
O=C(O)c1ccccc1[As](=O)(O)O | inactive: 0.761%
CC(=O)Nc1ccc([As](=O)(O)O)cc1 | inactive: -3.02%
CN(C)P(=O)(N(C)C)n1c(Nc2ccccc2)nnc1-c1ccccc1 | inactive: -6.91%
Cc1cc(C)cc(OP(C)(=O)Nc2cccc(C(F)(F)F)c2)c1 (centres undefined) | inactive: 0.857%
O=P(Nc1nc2ccc(Cl)cc2s1)(c1ccccc1)c1ccccc1 | inactive: -2.38%
CN(C(=O)Cc1ccc(Cl)c(Cl)c1)[C@H]1CCCC[C@@H]1N1CCCC1 | inactive: -3.15%
Cc1ccc(NP(=O)(Oc2ccccc2F)Oc2ccccc2F)nc1 | inactive: -19.9%
COc1ccccc1OP(C)(=O)Nc1ccc(C)c(C)c1 (centres undefined) | inactive: -3.5%
CCOP(=O)(Nc1ccccc1)OCC | inactive: -2.06%
Cc1cc(SC(NC(=O)c2ccc(F)cc2)C(Cl)(Cl)Cl)ncn1 (centres undefined) | inactive: -4.68%
